The results in this text go back to patent US20230220206A1, “REJUVENATING AGENTS FOR ASPHALT RECYCLING” (BASF SE, priority 2020, published 2023).

Series [1] is described as follows: Softening point ring & ball of rejuvenated bitumen. The conditions noted are these: bitumen 20/30 rejuvenated with 5% of the compound, 180° C., 30 minutes.
A short description of series [2]: MSCR test, percentage elastic recovery. The settings on record: bitumen 20/30 + 5% compound. The class given is physicochemical.

Dodecenyl succinic acid anhydride: the “SP [° C.] (softening point)” value in series [1] was 51.0 °C. Further, in series [2] (0.1 kPa), the “MSCR % Rec. (0.1 kPa)” value is 10%. The “MSCR % Rec. (1.6 kPa)” value in series [2] (1.6 kPa) is listed as 4%. The “MSCR % Rec. (3.2 kPa)” value in series [2] (3.2 kPa) was determined as 2%.
